# Curated experimental data: logP (octanol/water) values

From the experimental data distributed with OPERA 2.9.

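OPERA's authors assembled the values from existing databases and did not measure them anew. The files give a single number for a compound and property, which may rest on several reports. Method and conditions are not stated for these values. The measured form (salt, isomer or mixture) is not always the one drawn. Unmarked limits or estimates from the upstream databases cannot be ruled out.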

logP is the log10 of the octanol-water partition coefficient; higher is more lipophilic. The databases behind each value are named after "via".

compound,logP (octanol/water),via
CC(N)C(O)c1ccc(O)c(O)c1 (configuration not stated),-1.43,OCHEM
[NH4+].n1n[nH]c([N-]c2nnn[nH]2)n1,-0.196,eChemPortal
Clc1ccc(-c2cc(Cl)c(Cl)c(Cl)c2)cc1,6.36,OCHEM
Cc1cc(C)c(C(=O)P(=O)(c2ccccc2)c2ccccc2)c(C)c1,3.1,eChemPortal
O=C=Nc1ccc(Cl)cc1,3.12,eChemPortal
CC1([C@@]2(O)CC[C@H]3[C@@H]4C=CC5=CC(=O)C=C[C@]5(C)[C@H]4CC[C@@]32C)OCCO1,3.47,eChemPortal
CCCCCCCCCC[N+](C)(C)CCCCCCCCCC.CCCCCCCCCC[N+](C)(C)CCCCCCCCCC.O=C([O-])CCCCC(=O)[O-],3.6,eChemPortal
FC(F)(F)c1ccc(Cl)cc1,3.7,eChemPortal
C=C1C[C@@H]2[C@H](CC[C@]3(C)C(=O)CC[C@@H]23)[C@@]2(C)C=CC(=O)C=C12,3.7,PubChem
CC(C)(C)OOC(=O)C(C)(C)C,3.17,eChemPortal
O=C(O)CCCCCNc1nc(NCCCCCC(=O)O)nc(NCCCCCC(=O)O)n1,0.15,eChemPortal
O=c1oc2ccccc2c(O)c1C1CC(c2ccc(OCc3ccc(C(F)(F)F)cc3)cc2)Cc2ccccc21 (configuration not stated),6.12,PubChem
C[C@]12CC[C@H]3[C@@H](CC[C@@]45O[C@@H]4C(O)=C(C#N)C[C@]35C)[C@@H]1CC[C@@H]2O,3,PubChem
CC(C)(c1cc(Br)c(OCCO)c(Br)c1)c1cc(Br)c(OCCO)c(Br)c1,4.97,OCHEM
c1ccc(-c2ccccc2-c2ccccc2)cc1,5.28,OFMPub
O=C1NC(=O)C(=NO)C(=O)N1,-1.2,eChemPortal
Cc1cc(N)ccc1N,0.16,"PubChem, eChemPortal"
CCN=C=NCCCN(C)C.Cl,-2.98,eChemPortal
O=c1[n-]c(=O)n(Cl)c(=O)n1Cl.[Na+],0,OFMPub
O=C(CCl)c1ccccc1,1.84,OCHEM
CC1=NCCc2c1[nH]c1cc(O)ccc21,2.19,OCHEM
CO/C=C(/C(=O)OC)c1ccccc1COc1cccc(C(F)(F)F)n1,3.68,eChemPortal
CCCCCCCCOC(=O)c1ccc(C(=O)OCCCCCCCC)c(C(=O)OCCCCCCCC)c1,5.5,OCHEM
CCc1cc(C)cc(CC)c1-c1c(OC(=O)C(C)(C)C)n2n(c1=O)CCOCC2,3.2,PubChem
COP(=O)(CCC(=O)NCO)OC,-1.68,eChemPortal
Cc1ccc2c(C)cccc2c1,4.44,OCHEM
CN(C)C(=S)[S-].CN(C)C(=S)[S-].[Zn+2],1.23,"OCHEM, PubChem, eChemPortal"
CC(C)c1ccc(CO)cc1,2.49,OCHEM
COc1ccc(N)c(N)c1.[Cl][Pt][Cl],-0.315,OCHEM
CC(=O)[C@H](O)c1ccccc1,0.852,eChemPortal
COS(=O)(=O)[O-].Cn1c(-c2ccccc2)cc(-c2ccccc2)[n+]1C,0.65,OCHEM
C/C(=N\NC(=O)Nc1cc(F)cc(F)c1)c1ncccc1C(=O)[O-].[Na+],0.255,eChemPortal
ClCc1ccc(CCl)cc1,3,eChemPortal
CC(Cl)(Cl)[N+](=O)[O-],1.56,PubChem
C[C@]12CC[C@H]3[C@@H](C=C[C@]4(O)C[C@@H](O)CC[C@]34C)[C@@H]1[C@@H]1C[C@@H]1C2=O,2.03,eChemPortal
O=S(=O)([N-]S(=O)(=O)C(F)(F)F)C(F)(F)F.[Li+],-1.325,eChemPortal
C1CCC(NC2CCCCC2)CC1.CC(C)(F)C[C@H](N[C@@H](c1ccc(-c2ccc(S(C)(=O)=O)cc2)cc1)C(F)(F)F)C(=O)O,0.945,eChemPortal
Cc1cc(C)c(C2=C(OC(=O)CC(C)(C)C)C3(CCCC3)OC2=O)c(C)c1,7.5,PubChem
CN(C)C(=O)Oc1ccc[n+](C)c1,1.554,PubChem
N=c1nc(Nc2nc(=N)[nH]c(=N)[nH]2)[nH]c(=N)[nH]1,-1,eChemPortal
CNCC(C)c1ccccc1 (configuration not stated),2.28,OCHEM
CN(CCO)CCO,-1.08,"PubChem, eChemPortal"
C[C@@H]1CN([C@H]2CC[C@](C#N)(c3ccc(F)cc3)CC2)CC[C@]1(C(=O)O)c1ccccc1,5,PubChem

The last 6 entries again:

compound,logP (octanol/water),via
Cc1cc(C)c(C2=C(OC(=O)CC(C)(C)C)C3(CCCC3)OC2=O)c(C)c1,7.5,PubChem
CN(C)C(=O)Oc1ccc[n+](C)c1,1.554,PubChem
N=c1nc(Nc2nc(=N)[nH]c(=N)[nH]2)[nH]c(=N)[nH]1,-1,eChemPortal
CNCC(C)c1ccccc1 (configuration not stated),2.28,OCHEM
CN(CCO)CCO,-1.08,"PubChem, eChemPortal"
C[C@@H]1CN([C@H]2CC[C@](C#N)(c3ccc(F)cc3)CC2)CC[C@]1(C(=O)O)c1ccccc1,5,PubChem